According to PubChem BioAssay (NCI):
The list shows a part of the results, in another mix than the full data. The source holds several records for some structures; these can differ, active in one and inactive in another. The source made the active and inactive calls. No stated cut-off is given here; in the data, active means growth inhibition above about 70%; inactive means the rest.

Legend:
[1] = NCI Yeast Anticancer Drug Screen. Data for the rad50 strain (AID 155);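 further: 0% = growth of vehicle-only cultures of the same strain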; conditions: S. cerevisiae rad50 strain growth inhibition, active compounds read high
[2] = NCI Yeast Anticancer Drug Screen. Data for the mec2-1 strain (AID 157); conditions: S. cerevisiae mec2-1 strain, active compounds read high
[3] = NCI Yeast Anticancer Drug Screen. Data for the sgs1 mgt1 strain (AID 161);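 further: 0% = growth of cultures given vehicle only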; conditions: S. cerevisiae sgs1 mgt1 strain, active compounds read high
[4] = NCI Yeast Anticancer Drug Screen. Data for the cln2 rad14 strain (AID 165);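 further: 0% = growth equal to vehicle treated cultures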; conditions: S. cerevisiae cln2 rad14 strain, active compounds read high
[5] = NCI Yeast Anticancer Drug Screen. Data for the bub3 strain (AID 167); conditions: S. cerevisiae bub3 mutant strain, active compounds read high
[6] = NCI Yeast Anticancer Drug Screen. Data for the mlh1 rad18 strain (AID 175); conditions: S. cerevisiae mlh1 rad18 strain growth inhibition, active compounds read high
[7] = at 5.0 µM (retest, dose inferred, filed as 0.5)
[8] = at 50.0 µM (retest, dose inferred, filed as 5.0)

Measured: growth inhibition

O=C(CO)Nc1ccc([As](=O)(O)O)cc1
inactive: [1]; [7] -13% | [1]; [8] -3% | [1]; at 50.0 µM -30.1% | [2]; [7] 4% | [2]; [8] 2% | [2]; at 50.0 µM -22.9% | [3]; [7] -2% | [3]; [8] -9% | [3]; at 50.0 µM -22.4% | [4]; [7] 12% | [4]; [8] -15% | [4]; at 50.0 µM 44.9% | [5]; [7] -6% | [5]; [8] 4% | [5]; at 50.0 µM -57.5% | [6]; [7] 3% | [6]; [8] 5% | [6]; at 50.0 µM -3.2%

CC1CCCc2c1cc(N)c1ccccc21 (centres undefined)
active: [1]; at 50.0 µM 85.6% | [3]; at 50.0 µM 90.2% | [6]; at 50.0 µM 89.4%
inactive: [1]; [7] 18% | [1]; [8] 16% | [2]; [7] 9% | [2]; [8] 14% | [2]; at 50.0 µM 67.1% | [3]; [7] 37% | [3]; [8] 10% | [4]; [7] 12% | [4]; [8] -2% | [4]; at 50.0 µM 2.25% | [5]; [7] 33% | [5]; [8] 49% | [5]; at 50.0 µM 48.4% | [6]; [7] 36% | [6]; [8] 42%

O=C(Nc1ccc([N+](=O)[O-])cc1)c1cc([N+](=O)[O-])cc([N+](=O)[O-])c1Cl
active: [1]; [8] 90% | [1]; at 50.0 µM 91.7% | [2]; [8] 75% | [2]; at 50.0 µM 84.4% | [3]; [8] 73% | [3]; at 50.0 µM 93.3% | [4]; [8] 70% | [4]; at 50.0 µM 79.7% | [5]; [8] 90% | [5]; at 50.0 µM 84.2% | [6]; [8] 92% | [6]; at 50.0 µM 93%
inactive: [1]; [7] 18% | [2]; [7] -12% | [3]; [7] -4% | [4]; [7] 1% | [5]; [7] -2% | [6]; [7] 6%

C[As](=O)(O)O
inactive: [1]; [7] -3% | [1]; [8] 6% | [1]; at 50.0 µM 35.5% | [2]; [7] -2% | [2]; [8] 3% | [2]; at 50.0 µM 6.1% | [3]; [7] 6% | [3]; [8] 1% | [3]; at 50.0 µM -9.55% | [4]; [7] -5% | [4]; [8] -1% | [4]; at 50.0 µM 55.1% | [5]; [7] -8% | [5]; [8] -2% | [5]; at 50.0 µM 22.8% | [6]; [7] -6% | [6]; [8] 7% | [6]; at 50.0 µM -2.8%

O=[As]c1ccc(F)cc1 (centres undefined)
inactive: [1]; [7] 36% | [2]; [7] 24% | [3]; [7] 21% | [4]; [7] 12% | [5]; [7] 53% | [6]; [7] 22%
active: [1]; [8] 99% | [2]; [8] 100% | [3]; [8] 99% | [4]; [8] 100% | [5]; [8] 99% | [6]; [8] 99%
